Laboratory results from publication PMC4253978, “Characterization of the Anopheles gambiae octopamine receptor and discovery of potential agonists and antagonists using a combined computational-experimental approach” (Malaria Journal, 2014).
pEC50, pIC50: −log10 of the molar value. Read-outs that look alike come from different tables or passages of the source. Marks after values point to notes of the source that are not given here.

Amino acid sequences for entries named in this document (tags omitted). Residues count along the entry.
UniProt F5HJT6, 1-590: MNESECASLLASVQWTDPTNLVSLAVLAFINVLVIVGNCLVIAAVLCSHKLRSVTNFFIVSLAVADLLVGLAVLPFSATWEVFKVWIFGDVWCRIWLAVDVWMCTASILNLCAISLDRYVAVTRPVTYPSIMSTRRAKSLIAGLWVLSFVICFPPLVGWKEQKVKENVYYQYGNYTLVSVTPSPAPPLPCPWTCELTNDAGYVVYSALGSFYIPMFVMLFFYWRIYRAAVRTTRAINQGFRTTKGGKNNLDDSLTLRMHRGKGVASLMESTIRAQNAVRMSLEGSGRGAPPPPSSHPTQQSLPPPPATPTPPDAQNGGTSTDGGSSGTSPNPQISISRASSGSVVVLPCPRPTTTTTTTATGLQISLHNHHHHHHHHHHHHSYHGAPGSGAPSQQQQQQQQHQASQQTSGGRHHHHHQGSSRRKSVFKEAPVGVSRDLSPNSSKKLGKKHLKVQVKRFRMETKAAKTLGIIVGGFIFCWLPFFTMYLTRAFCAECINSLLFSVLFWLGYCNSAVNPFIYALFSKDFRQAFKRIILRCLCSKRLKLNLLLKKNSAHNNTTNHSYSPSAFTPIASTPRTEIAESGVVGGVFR

Molecular target: AgOAR45B (Anopheles gambiae, UniProt F5HJT6)
Conditions: for Agonist Efficiency / Antagonist Efficiency: percent of the 1µM octopamine response; for Ligand Type: classification in the AgOAR45B reporter assay; for pEC50: read-out: Agonist EC50

In the case of `CC(C)CC(=O)NC(=S)Nc1cccc(S(=O)(=O)N2CCCCCC2)c1`, the “Agonist Efficiency” value (100µM compound) was 3%, the “Antagonist Efficiency” value (100µM compound) was >90% and the “Ligand Type” value was “weak agonist”. It also gave a pEC50 (value in parentheses) of 4.55.

For `CCN(CC)c1ccc(NC(=O)Cc2ccccc2)cc1`, the “Agonist Efficiency” value (100µM compound) was 13%, the “Antagonist Efficiency” value (100µM compound) was 86.2% and the “Ligand Type” value was “weak agonist”. For the same compound, the pEC50 (value in parentheses) was 5.43.

With `CCN(CC)c1ccc(Nc2c(-c3ccc4c(c3)OCC(=O)N4)c(=O)c2=O)c(C)c1` the “Agonist Efficiency” value (100µM compound) was <5%, the “Ligand Type” value was “antagonist” and the “Antagonistic activity” value (in the presence of 1 μM octopamine) was “exhibited a dose response for at least two concentrations”. For the same compound, the pIC50 (read-out: Antagonist IC50, value in parentheses, against 1µM octopamine) was 4.88 and the “Antagonist Efficiency” value (tested at 50µM because insoluble at 100µM, listed as 9274026) was 11^b (13.2) %.
